# From patent US4396606A, “Novel polypeptide analgesics” (Addiction Research Foundation, priority 1979, dated 1983)
# What was measured:
# rat brain membranes = experiment: radioreceptor binding assay; details: 1 nM radioligand, 1 h at 23°
# Protocol: The radioreceptor binding assay used well washed rat brain membranes that had been incubated for 30 min at 37° with 100 mM NaCl to remove bound endogenous ligands. Blume (1978) Proc. Natl. Acad. Sci. 75, 1713. Several radioligands (1 nM final concentration) and competing ligands were tested. Competing ligands were added to the membrane suspension in Tris buffer, pH 7.4 at 23°, and radioligand was added immediately thereafter. Assay volume was 500 μl. After incubation (1 h, 23°), the mixture was chilled, filtered, washed twice, and counted. Displacement of radioligand by levallorphan (1 μM final concentration) was taken as measure of stereospecific saturable binding; this was usually about 70% of total binding. […] Methanol-HCl solvent, present in all incubation tubes in a volume of 5 μl, had no effect on control binding.
# Effects of dynorphin-(1-13) in the radioreceptor binding assay. Washed membranes from rat brain homogenate, 1 h incubation at 23°. Data are IC50 values (nM) from complete log dose-inhibition curves for inhibition of stereospecific binding of the various radioligands. […] DADLE=D-ala^2 -D-leu^5 -enkephalin. DHM=dihydromorphine.
# mouse vas deferens = mouse vas deferens bioassay; assay type: cell-based
# From the text: The guinea pig ileum myenteric plexus-longitudinal muscle preparation was used as described in Kosterlitz et al, supra, and Schulz & Goldstein, supra. A determination of IC50 was done by bracketing, with at least one concentration giving more than, and one giving less than 50% inhibition of the electrically stimulated twitch, and interpolating on a log concentration-percent inhibition plot. Geometric means of IC50 values from several muscle strips were obtained, with standard errors in log units. Kd values for naloxone as an antagonist were determined from the ratio of IC50 values in the presence and absence of a fixed naloxone concentration. The mouse vas deferens was used as described in Hughes at al (1975) Brit. J. Pharmacol. 53, 371. IC50 and naloxone Kd values were determined as above.
# Effects of dynorphin-(1-13) in two bioassays. IC50 values were obtained from assays spanning the 50% inhibition response, plotted on log dose-percent inhibition plots. Naloxone Kd is the apparent dissociation constant of the antagonist, computed from the equation Kd =[…]/(D.R.-1), derived from the mass law for competitive antagonism, where C=concentration of naloxone (here 100 nM), and D.R.=dose ratio of agonist, the ratio of IC50 doses in the presence and absence of the antagonist. The same procedures were followed with the mouse vas deferens. […]
# [1] = tested on: antiserum to dynorphin (1-13)-thyroglobulin conjugate; experiment: dynorphin radioimmunoassay; assay type: binding, rabbit
# From the text: The subject dynorphin was used for the development of immunoassays, illustrated particularly by a radioimmunoassay. For carrying out the immunoassay, it is necessary to prepare antigens which specifically recognize the oligopeptide, in this case dynorphin. To prepare antigen conjugates, thyroglobulin was conjugated to synthetic dynorphin (1-13). The procedure for preparing the antigen conjugate, injecting the antigen conjugate into animals and isolating the antisera is described as follows.
# Synthetic dynorphin (1-13) (3.25 μmoles, 5.2 mg) was dissolved in 2 ml of 100 mM sodium phosphate buffer at neutrality. To the mixture was added with agitation 10^5 cpm of ^125 I-dynorphin to serve as a tracer. After addition of the tracer, 26 mg of thyroglobulin (bovine type 1, Sigma) was added and the mixture cooled in an ice-bath after the thyroglobulin dissolved. […]
# Based on the coupling efficiency calculated from the cpm of the dialysis bag residue, after lyophilizing, sufficient of the conjugate was employed to provide 50-100 μg of coupled oligopeptide per rabbit. […]
# The procedure for the assay was as follows: All solutions were in ice at the outset and all operations were carried out in ice. […] To a 13×100 mm borosilicate glass tube was transferred 850 μl of the supernatant and the tube counted for 5 min in a gamma counter. […]
# [2] = tested on: guinea pig ileum myenteric plexus-longitudinal muscle preparation; experiment: guinea pig ileum myenteric plexus-longitudinal muscle preparation bioassay; assay type: cell-based; details: inhibition of electrically stimulated twitch; geometric mean of several muscle strips
# From the text: Starting material was 100 g MSH concentrate, the second oxycellulose adsorbate in commercial ACTH production from procine pituitary glands (Schally et al (1962) Endocrinology 71, 164). The initial steps, with 25 g batches, have been described in Lowney et al (1979) Life Sci. 24, 2377: extraction and back-extraction with butanol; separation from β-endorphin on Bio-Gel P6; preparative reversed-phase HPLC on C18 columns, first with a methanol gradient in trifluoroacetic acid (TFA), then with an acetonitrile gradient in Tris buffer at neutrality, followed by elution of the active material with TFA. Every step was monitored by assay on the guinea pig ileum myenteric plexus-longitudinal muscle preparation. Kosterlitz & Waterfled (1975) Ann. Rev. Pharmacol. 15, 29; Schulz & Goldstein (1973) Brit. J. Pharmacol. 48, 655.
# The guinea pig ileum myenteric plexus-longitudinal muscle preparation was used as described in Kosterlitz et al, supra, and Schulz & Goldstein, supra. […] Kd values for naloxone as an antagonist were determined from the ratio of IC50 values in the presence and absence of a fixed naloxone concentration. […] IC50 and naloxone Kd values were determined as above. […]
# [3] = ^a = unusually shallow slope, read-out: IC50 for inhibition of stereospecific binding, radioligand 3H-DADLE
Compound,IC50 (rat brain membranes; [3]) [nM],"IC50 (rat brain membranes; ^a = unusually shallow slope, read-out: IC50 for inhibition of stereospecific binding, radioligand 3H-DHM) [nM]","IC50 (rat brain membranes; without Na, read-out: IC50 for inhibition of stereospecific binding, radioligand 3H-naloxone -Na) [nM]","IC50 (mouse vas deferens; inhibition of electrically stimulated twitch, geometric mean) [nM]",Potency in mouse vas deferens / potency in guinea pig ileum (mouse vas deferens; ratio of potencies in the two bioassays),"binding of labeled leucine enkephalin by the antiserum ([1]; antiserum concentration as high as 1:10 dilution, iodinated or tritiated)",cross reactivity with dynorphin in the radioimmunoassay ([1]; fragment substituted for dynorphin),IC50 [2] [nM]
Oc1ccc2c3c1O[C@H]1[C@@H](O)C=C[C@H]4[C@@H](C2)NCC[C@@]341 [Normorphine],23,,,,,,,
Leucine-enkephalin,400,2100,6000,23,20,neither iodinated nor tritiated leucine enkephalin was bound,no evidence of any cross reactivity,460

# Read-outs that look alike come from different tables or passages of the source.
